# Experimental properties from OPERA 2.9

The melting point is given in degrees Celsius. The boiling point refers to atmospheric pressure (760 mmHg), by the definition of the set. The octanol-water partition coefficient is given as log10; larger values mean a more lipophilic compound. Water solubility is log10 of mol/L, nominally at 25 °C; higher is more soluble. Vapor pressures (log10 mmHg) refer to near room temperature, 15 to 30 °C; higher is more volatile. Henry's law constant (air-water partitioning) is log10 of atm·m3/mol, nominally at 25 °C. Cells with "–" have no entry in this list.

| compound | name | melting point (°C) | boiling point (°C) | log Kow | log S (log10 mol/L) | vapor pressure (log10 mmHg) | log Henry constant (log10 atm·m3/mol) |
|---|---|---|---|---|---|---|---|
| C1CCN([P+](N2CCCCC2)(N2CCCCC2)N2CCCCC2)CC1.[Cl-] | Tetrakis(1-piperidyl)phosphonium chloride | 165 | – | – | -2.782 | – | – |
| Cn1cc(C(=O)Nc2cccc3c2C2CCC3C2=C(Cl)Cl)c(C(F)F)n1 (stereo not drawn) | Benzovindiflupyr | 148.4 | – | 4.3 | -5.609 | -10.62 | – |
| Cc1nn(C)c(Cl)c1C(O)=Nc1cccc2c1C(C)OC2(C)C (stereo not drawn) | Furametpyr | – | – | – | -3.12 | -9.076 | – |
| c1ccc([C@H]2CN3CCSC3=N2)cc1 | Levamisole | – | – | – | -2.26 | -3.955 | – |
| C[C@]12CCC(=O)C=C1CC[C@@H]1[C@@H]2CC[C@@]2(C)[C@H]1CC[C@@]2(O)CCCO | (17beta)-17-Hydroxy-17-(3-hydroxypropyl)androst-4-en-3-one | 163.6 | – | 2.51 | -3.754 | -13.4 | – |
| O=C(O)COc1ccc2ccccc2c1 | 2-Naphthoxyacetic acid | – | – | – | -3 | -7.664 | -8.98 |
| FC(F)(F)C1(F)C(F)(F)C(F)(F)C1(F)C(F)(F)F (stereo not drawn) | Perfluoro-1,2-dimethylcyclobutane | -32 | – | – | – | 2.595 | – |
| CN(C)CCOCCN(C)CCOCCN(C)C | N,N,2,8-Tetramethyl-5,11-dioxa-2,8-diazatridecan-13-amine | – | – | -0.039 | – | -1.429 | – |
| COc1ccc(NC(=O)CC(C)=O)cc1 | N-(4-Methoxyphenyl)-3-oxobutanamide | – | – | 0.85 | -1.901 | – | – |
| Cc1cccc(CC(C)(C)CO)c1 | 2,2-Dimethyl-3-(3-methylphenyl)propanol | 23.8 | – | 3.225 | -2.827 | -1.497 | – |
| CCNc1nc(CC)c(C(=O)NC(C#N)c2cccs2)s1 (stereo not drawn) | Ethaboxam | – | – | – | -4.41 | -6.216 | – |
| O=C1OC(=O)c2cc(Oc3ccc4c(c3)C(=O)OC4=O)ccc21 | 5,5'-Oxybis(2-benzofuran-1,3-dione) | – | – | – | -1.912 | -7.011 | – |
| C=C(C)C(=O)OCCOC | 2-Methoxyethyl methacrylate | – | 175.3 | 1.551 | – | -0.65 | – |
| COCCOCCOCC(=O)O | (2-(2-Methoxyethoxy)ethoxy)acetic acid | -29 | – | – | – | -3.773 | – |
| CCCCCC#CC(=O)OC | Methyl 2-octynoate | – | – | 3 | -3.009 | -1.041 | – |
| Cc1cccc(C)c1NC(=O)CN1CCN(CCCC(c2ccc(F)cc2)c2ccc(F)cc2)CC1 | Lidoflazine | 160 | – | – | -3.68 | – | – |
| CC(C)N1CCN(c2ccc(OC[C@H]3CO[C@](Cn4cncn4)(c4ccc(Cl)cc4Cl)O3)cc2)CC1 | Terconazole | – | – | 4.5 | -4.662 | – | – |
| CCN(CC[N+](C)(C)C)c1ccc(/N=N/c2nc(-c3ccccc3)ns2)c(C)c1.COS(=O)(=O)[O-] | – | 129 | – | -1 | – | -5.232 | – |
| CCCCc1nc(C=O)c(Cl)[nH]1 | 2-Butyl-5-chloroimidazole-4-carbaldehyde | – | – | 2.5 | -2.199 | -5.385 | – |

Excerpt, the opening 2 entries:

| compound | name | melting point (°C) | boiling point (°C) | log Kow | log S (log10 mol/L) | vapor pressure (log10 mmHg) | log Henry constant (log10 atm·m3/mol) |
|---|---|---|---|---|---|---|---|
| C1CCN([P+](N2CCCCC2)(N2CCCCC2)N2CCCCC2)CC1.[Cl-] | Tetrakis(1-piperidyl)phosphonium chloride | 165 | – | – | -2.782 | – | – |
| Cn1cc(C(=O)Nc2cccc3c2C2CCC3C2=C(Cl)Cl)c(C(F)F)n1 (stereo not drawn) | Benzovindiflupyr | 148.4 | – | 4.3 | -5.609 | -10.62 | – |

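The OPERA project collected these measurements from public sources as training and test data for property models. A listed value is a point estimate from one report or more. Method, purity and exact conditions of the single measurements are not given. A value may pool stereoisomers or salt forms, and the file does not say which form was measured. Unmarked limits or estimates from the upstream databases cannot be ruled out.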

From the experimental data distributed with OPERA 2.9.